Source: patent US8592383B2, “Cycloalkyl-fused tetrahydroquinolines as CRTH2 receptor modulators” (Merck Sharp & Dohme Corp., priority 2011, dated 2013)
Where two headings read alike, the source gives them in different places.

Columns and labels:
hCRTH2 [1] = target: T1, hCRTH2 (Homo sapiens, UniProt Q9Y5Y4); set-up: expressed in transfected cells; host or cells: HEK (human embryonic kidney) cells expressing hCRTH2; settings: Radioligand Binding Assay B
T1 sequence (Q9Y5Y4 1-395): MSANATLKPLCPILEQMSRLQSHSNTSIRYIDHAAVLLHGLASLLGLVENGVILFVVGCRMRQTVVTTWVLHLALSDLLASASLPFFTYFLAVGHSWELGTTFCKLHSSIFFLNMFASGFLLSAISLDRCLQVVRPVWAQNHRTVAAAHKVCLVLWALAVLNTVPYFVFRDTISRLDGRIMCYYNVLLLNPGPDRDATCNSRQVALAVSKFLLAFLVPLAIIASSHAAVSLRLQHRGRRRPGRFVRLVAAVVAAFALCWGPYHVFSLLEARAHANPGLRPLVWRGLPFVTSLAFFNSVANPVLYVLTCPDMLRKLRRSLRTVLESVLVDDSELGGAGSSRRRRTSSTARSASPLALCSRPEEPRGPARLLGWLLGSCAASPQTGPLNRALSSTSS
Method: The filters were then washed with 4 mL of the same buffer and residual radioligand bound to the filter was determined by liquid scintillation counting following equilibration in 25 μl Ultima Gold F™ (Unifilter) (Packard).

hCRTH2 [2] = target: T1, hCRTH2; assay: biochemical; settings: Radioligand Binding Assay A, 3.0 nM [3H]PGD2, HEK-hCRTH2 membranes

| Ki (hCRTH2 [1]; 0.7 nM [3H]PGD2, HEK-hCRTH2 membranes) [nM] | Ki (hCRTH2 [1]; Table B, rated A-D) [nM] | SMILES | Ki (hCRTH2 [2]) [nM] |
| --- | --- | --- | --- |
| 7.7 | 5.1 to 20 | O=C(O)CCC(=O)N(C1CC1)C1c2ccccc2N(C(=O)c2ccc(OC(F)(F)F)cc2)C2CCC21 (racemic) [compound 27, 4-{Cyclopropyl[cis,cis-3-{[4-(trifluoromethoxy)phenyl]carbonyl}-1,2,2a,3,8,8a-hexahydrocyclobuta[b]quinolin-8-yl]amino}-4-oxobutanoic acid] |  |
|  |  | O=C(O)CCC(=O)N(C1CC1)[C@@H]1c2cc(CO)ccc2N(C(=O)c2ccc(OC(F)(F)F)cc2)[C@@H]2CCC[C@@H]21 (single isomer, unassigned) [compound 55, 4-(Cyclopropyl((cis,cis,)-7-(hydroxymethyl)-4-(4-(trifluoromethoxy)benzoyl)-2,3,3a,4,9,9a-hexahydro-1H-cyclopenta[b]quinolin-9-yl)amino)-4-oxobutanoic acid] | 37.7 |
